Curated experimental data: intrinsic clearance values

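These are experimental values that the OPERA curators gathered from public databases to train and test their QSAR models. The files give a single number for a compound and property, which may rest on several reports. How each value was measured is not recorded, so precision varies. Where a salt, mixture or single isomer is drawn, the source does not say that exactly this form was tested. Some entries may be limits or estimates that an upstream database listed as plain numbers.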

Intrinsic clearance (human, µL/min per 10^6 hepatocytes): higher is faster turnover, and 0 stands for none detected.

structure (SMILES)	intrinsic clearance (µL/min/10^6 cells)
CCOC(=O)c1ccc(N)cc1	132
N#CSCSc1nc2ccccc2s1	29.6
Cc1ccc(S(=O)(=O)Nc2c(C(=O)N[C@@H](C)C(C)(C)C)c(C)nn2-c2ccccc2)cc1	6.99
c1ccc2[nH]c(-c3cscn3)nc2c1	0
C[C@]12CC[C@@H]3c4ccc(O)cc4C[C@@H](CCCCCCCCCS(=O)CCCC(F)(F)C(F)(F)F)[C@H]3[C@@H]1CC[C@@H]2O (stereo partly specified)	2.4
O=C(O)c1cccc(N(Cc2cccnc2)c2ccc(OC(F)F)c(OC(F)F)c2)c1	7.69
CC(=O)C(C)=CC1C(C)=CCCC1(C)C (stereo not drawn)	10.8
Cc1cccc(Nc2cc(Cl)nc(SCC(=O)O)n2)c1C	7.51
CC(C)(C)c1ccc(N)cc1	10.7
C1COCCO1	0.6904
CSc1ccc2c(c1)N(CCC1CCCCN1C)c1ccccc1S2 (stereo not drawn)	0.915
C[C@@H]1C[C@H]2[C@@H]3CCC4=CC(=O)C=C[C@]4(C)[C@@]3(F)[C@@H](O)C[C@]2(C)[C@@]1(O)C(=O)COP(=O)([O-])[O-].[Na+].[Na+]	9.63
CC(C)OC(=O)C(C)(C)Oc1ccc(C(=O)c2ccc(Cl)cc2)cc1	563
O=c1c(-c2ccc(O)cc2)coc2cc(O)cc(O)c12	18.69
O=C(Nc1ccc([N+](=O)[O-])cc1Cl)c1cc(Cl)ccc1O	12
CCCCCCCCCCCC[N+](C)(C)C.[Cl-]	16.2
CC(C)(C)c1cccc(O)c1	40.2
COc1cc(C=O)ccc1O	234
CCOC(=O)COc1cc(-n2ncc(C(F)(F)F)c(C)c2=O)c(F)cc1Cl	375
CC(C)(C)c1cccc(C(C)(C)C)c1O	0
Cc1noc2cc(N3CCN(C(=O)[C@@H]4CCCC[C@H]4C(=O)NC4(C#N)CC4)[C@H](C)C3)ccc12	30.2
CC1=CC(=O)CC(C)(C)C1	18.7
CCCCCCCCCCCCCOS(=O)(=O)[O-].[Na+]	43.1
O=C(O[C@@H]1Cc2c(O)cc(O)cc2O[C@@H]1c1cc(O)c(O)c(O)c1)c1cc(O)c(O)c(O)c1	135
CC(C)(C)NCC(O)COc1cccc2c1C[C@H](O)[C@H](O)C2 (stereo partly drawn)	3.193
CCCC(CC)C(=O)O (stereo not drawn)	0.779
O.O=C1[N-]S(=O)(=O)c2ccccc21.[Na+]	0
CCCCOCCOCCOCc1cc2c(cc1CCC)OCO2	76.01
CC(C)(C)CC(C)(C)c1ccc(O)c(-n2nc3ccccc3n2)c1	5.87
CCCCOC(=O)c1ccc(O)cc1	39.3
CC/C(=C(/CC)c1ccc(O)cc1)c1ccc(O)cc1	39.5

The last 4 entries again:

structure (SMILES)	intrinsic clearance (µL/min/10^6 cells)
CCCCOCCOCCOCc1cc2c(cc1CCC)OCO2	76.01
CC(C)(C)CC(C)(C)c1ccc(O)c(-n2nc3ccccc3n2)c1	5.87
CCCCOC(=O)c1ccc(O)cc1	39.3
CC/C(=C(/CC)c1ccc(O)cc1)c1ccc(O)cc1	39.5

Values as listed in the OPERA 2.9 repository of K. Mansouri.